Legend:
MMP-2 = MMP-2 (Homo sapiens (Human), UniProt P08253); test: Enzyme inhibition studies, MMP-2; format: biochemical
MMP-9 = MMP-9 (Homo sapiens (Human), UniProt P14780); test: Enzyme inhibition studies, MMP-9 catalytic domain

Protein sequences, listed by entry. Tags and fused reporters are not part of them. Residues count along the entry.
UniProt P08253, 110-660: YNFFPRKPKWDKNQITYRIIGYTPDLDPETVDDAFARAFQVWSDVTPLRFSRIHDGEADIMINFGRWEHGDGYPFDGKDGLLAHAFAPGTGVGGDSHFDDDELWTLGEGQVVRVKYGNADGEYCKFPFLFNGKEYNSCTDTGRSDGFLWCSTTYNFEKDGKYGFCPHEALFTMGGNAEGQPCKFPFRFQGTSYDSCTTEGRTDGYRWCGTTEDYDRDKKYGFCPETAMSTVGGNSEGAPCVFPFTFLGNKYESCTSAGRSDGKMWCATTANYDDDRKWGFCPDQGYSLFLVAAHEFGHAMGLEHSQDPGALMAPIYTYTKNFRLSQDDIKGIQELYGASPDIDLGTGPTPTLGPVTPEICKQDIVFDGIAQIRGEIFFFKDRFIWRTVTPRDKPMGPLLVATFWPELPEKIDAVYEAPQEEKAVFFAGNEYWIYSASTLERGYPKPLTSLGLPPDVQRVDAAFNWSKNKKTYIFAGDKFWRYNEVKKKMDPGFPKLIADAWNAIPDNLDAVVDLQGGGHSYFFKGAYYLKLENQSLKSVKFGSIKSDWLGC
UniProt P14780, 107-444: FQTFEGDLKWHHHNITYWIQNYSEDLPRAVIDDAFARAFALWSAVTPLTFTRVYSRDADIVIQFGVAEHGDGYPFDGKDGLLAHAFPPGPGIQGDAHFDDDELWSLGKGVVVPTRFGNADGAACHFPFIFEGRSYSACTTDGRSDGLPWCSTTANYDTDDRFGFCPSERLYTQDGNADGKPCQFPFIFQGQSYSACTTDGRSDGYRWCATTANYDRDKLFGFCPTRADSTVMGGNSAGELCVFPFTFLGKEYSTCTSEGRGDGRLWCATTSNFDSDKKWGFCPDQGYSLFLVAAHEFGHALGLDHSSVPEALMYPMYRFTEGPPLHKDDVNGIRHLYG

Compound | fold more potent slow-binding inhibitor of MMP-2 than 4 (MMP-2) | kon (MMP-2) | residence time (MMP-2) | koff (MMP-2; read-out: 10^3 koff) | Ki (MMP-2; Ki, slow-binding, Ki calculated from koff/kon) | kon (MMP-9) | koff (MMP-9; read-out: 10^3 koff)
CC(=O)NCc1ccc(Oc2ccc(S(=O)(=O)CC3CS3)cc2)cc1 (stereo not shown) [Compound 6, N-(4-(4-((Thiiran-2-ylmethyl)sulfonyl)phenoxy)benzyl)acetamide] | 3 fold | 3910 ± 50 M⁻¹ s⁻¹ | 18.2 ± 0.4 min | 0.915 ± 0.019 s⁻¹ |  |  | 
N=C(N)Nc1ccc(Oc2ccc(S(=O)(=O)CC3CS3)cc2)cc1 (stereo not shown) |  |  |  |  | 21 ± 2 nM | 3820 ± 210 M⁻¹ s⁻¹ | 0.355 ± 0.024 s⁻¹

Reference: patent US9951035B2 (dated 2018)
